Results published in patent US7585852B2, “Cobalamine derivatives useful for diagnosis and treatment of abnormal cellular proliferation” (Solidago AG, priority 2003, dated 2009).

Assay: Biodistribution of radiolabeled cyanocobalamin derivatives in tumor bearing mice
Format: in vivo, balb/c mice
Conditions: 24 h after i.v. injection of radioactive labeled derivative, tumor bearing mice (melanoma B16-F10), vitamin-free diet, figures use percent of injected radioactivity per gram of tissue
Description: For in vivo studies and for binding studies to the transport vectors, very high specific activity was demanded. Therefore, 100 μl of the labeled solution were injected to an analytical HPLC system to separate the hot from the cold vitamin derivative. The eluate fraction with the highest gamma activity (ca. 300 μl) was diluted with normal saline to a concentration of 10 μCi per animal before i.v. injection. Separation condition were: acetate buffer, XTerra RP8 column, gradient: 0% methanol (0 min), 30% methanol (15 min), 100% methanol (25 min) for the b and d-derivatives, and the TEAP system as described by Schibli et al. (Bioconjugate Chem. 2000, 343-351) for the other compounds.
For biodistribution studies with ^57Co-cyanocobalamin, 0.2 μCi/1 ng of the radiolabeled cyanocobalamin is mixed with 180 μl normal saline and injected i.v. in tumor bearing balb/c mice (syngeneic mouse melanoma B16-F10). After a specified time (5 min to 24 h), animals are sacrificed, the organs weighted and counted on a gamma counter. For biodistribution studies with ^99mTc-labeled cyanocobalamin, 10 μCi/0.5 ng of the radiolabelled cyanocobalamin is mixed with normal saline and used as before. For biodistribution with ^111In-labeled cyanocobalamin, 2 μCi/5 ng of the radiolabeled cyanocobalamin is mixed with normal saline and used as before. To study the effect of Vitamin B12 deficient food, the biodistribution of labeled cyanocobalamin is compared in mice fed with normal food with the biodistribution in mice fed with vitamin B12 deficient food for a period of 2 weeks.

## Cyanocobalamin-b-butyl-aminocarboxymethyl-His-OMe [Example 6]
  Tissue distribution: Blood: 2.4 %ID/g
  Tissue distribution: Kidney: 15.8 %ID/g
  Tissue distribution: Tumor: 7.3 %ID/g
In %ID/g
  Tissue distribution: Liver: 7.40
